Measured values published in patent publication US6635432B1, “Peptide potentiation of acid-sensory ion channel in pain” (University of Iowa Research Foundation, priority 2000, dated 2003).

How the values were obtained:
ASICα [1] = target: T1, ASICα (Homo sapiens, UniProt P78348); assay: Two-electrode voltage-clamp of Xenopus oocytes expressing ASICα; format: cell-based; parameters: expressed in transfected cells; host or cells: Xenopus laevis oocytes (nuclear injection of pMT3 plasmid)
T1 sequence (P78348 1-528): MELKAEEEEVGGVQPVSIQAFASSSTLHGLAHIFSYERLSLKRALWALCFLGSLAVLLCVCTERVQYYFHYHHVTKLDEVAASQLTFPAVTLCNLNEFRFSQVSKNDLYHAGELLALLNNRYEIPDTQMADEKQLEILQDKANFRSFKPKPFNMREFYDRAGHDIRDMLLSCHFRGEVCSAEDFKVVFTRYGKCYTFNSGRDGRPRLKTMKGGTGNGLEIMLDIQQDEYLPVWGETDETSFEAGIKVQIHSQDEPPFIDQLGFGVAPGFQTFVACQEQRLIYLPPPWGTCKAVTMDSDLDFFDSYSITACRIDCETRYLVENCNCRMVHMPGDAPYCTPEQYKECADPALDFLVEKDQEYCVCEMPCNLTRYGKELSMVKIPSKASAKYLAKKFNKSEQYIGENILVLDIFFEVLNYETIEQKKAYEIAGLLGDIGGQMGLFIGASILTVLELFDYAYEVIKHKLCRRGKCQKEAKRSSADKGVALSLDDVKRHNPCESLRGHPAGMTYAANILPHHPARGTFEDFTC
Source text: Human ASICα was cloned from brain polyA RNA. Rat ASICβ and mouse DRASIC were cloned from DRG RNA. Human BNC1 was cloned as described in Price et al. (1996)(Price, M. P., Snyder, P. M., and Welsh, M. J. (1996). Cloning and expression of a novel human brain Na^+ channel. J Biol Chem 271, 7879-7882). Constructs were cloned into pMT3 for expression.
Expression of the cDNA constructs in Xenopus oocytes was accomplished by injection of plasmid DNA into the nucleus of defolliculated albino Xenopus laevis oocytes (Nasco, Fort Atkinson, Wis.) as described previously (Adams, C. M., Snyder, P. M., Price, M. P., and Welsh, M. J. (1998). Protons activate brain Na^+ channel 1 by inducing a conformational change that exposes a residue associated with neurodegeneration. J Biol Chem 273, 30204-30207). Plasmids were injected at concentrations of 100 ng/μl for most experiments. Oocytes were incubated in modified Barth's solution at 18° C. for 12-26 hr after injection. Cells injected with DRASIC were allowed to incubate for 24-48 hr before analysis.
Whole-cell currents in oocytes were measured using a two-electrode voltage-clamp as previously described (Adams, et al. (1998)). Oocytes were bathed in frog Ringers solution containing, in mM: 116 NaCl, LiCl or KCl, 0.4 CaCl2, MgCl2, 5 4-(2-hydroxyethyl)-1-piperazineethanesulfonic acid (HEPES), pH 7.4. Acidic solutions were buffered with 5 mM 2-(4-morpholino)-ethanesulfonic acid (MES) instead of HEPES. Membrane voltage was held at −60 mV unless otherwise noted. Most peptides and naloxone were obtained from Sigma Chemical Co. (St. Louis, Mont.) and were added to the extracellular solution. The peptide FRRFamide was synthesized by Research Genetics (Huntsville, Ala.).

ASICα [2] = target: T1, ASICα; assay: Whole-cell patch-clamp of HEK-293T cells transfected with ASICα; format: cell-based; parameters: expressed in transfected cells
Source text: Human ASICα was cloned from brain polyA RNA. Rat ASICβ and mouse DRASIC were cloned from DRG RNA. […] Constructs were cloned into pMT3 for expression.
To identify transfected cells, pGreenlantern vector encoding green fluorescent protein (Gibco, Gaithersburg, Md.) was co-transfected with ASICα at a ratio of 1:6; transfected cells were identified using epifluorescence microscopy. Cells were studied 1-2 days after transfection.
The pipette solution contained, in mM: 120 KCl, 10 NaCl, 2 MgCl2, 5 EGTA, 10 HEPES. Perfusion of cells with different solutions was done by placing the appropriate outlet in front of the cell. Data were recorded with an AXOPATCH 200 (Axon Instruments, Foster City, Calif.) and stored on a digital tape recorder. Digitization was executed by acquiring data at 400 Hz using pClamp6 (Axon Instruments, Foster City, Calif.).

## CSCC[C@H](NC(=O)[C@@H](N)Cc1ccccc1)C(=O)N[C@@H](CCCNC(=N)N)C(=O)N[C@@H](Cc1ccccc1)C(N)=O [FMRFamide, Phe-Met-Arg-Phe amide]
ASICα [1]
  EC50: ~33 µM
ASICα [1]; FMRFamide 50 μM
  pH sensitivity of FMRFamide-induced sustained current: showed sensitivity to a broader pH range compared to the transient current
ASICα [1]; FMRFamide 50 μM added prior to acidification
  effect on pH sensitivity of the transient current: did not alter the pH sensitivity of the transient current
ASICα [1]; FMRFamide applied at pH 7.4, then 80 sec wash at pH 7.4
  sustained current on acidification after washout of FMRFamide: acidification generated no sustained current
ASICα [1]; FMRFamide-induced sustained current
  Ca2+ conductance of the sustained current: did not show Ca^2+ conductance
ASICα [1]; oocytes
  channel closure on return to pH 7.4 in continued presence of FMRFamide: did not prevent channel closure when pH was returned to 7.4
ASICα [1]; oocytes, FMRFamide 50 or 100 μM, pH 5
  dependence of sustained current on sequence of FMRFamide and acid addition: The largest sustained currents required FMRFamide addition before lowering the extracellular pH
ASICα [1]; oocytes, pH 5, agents 50 μM (A18Famide 25 μM), added prior to and during acidification
  effect on H+-gated ASICα current (inactivation, sustained current): slowing of inactivation and the appearance of a sustained current at pH 5
ASICα [1]; pH 5, FMRFamide 50 μM
  effect on I-V relationship of the peak current: not altered
  slope conductivity sequence of the sustained current: Na^+≧Li^+>K^+
ASICα [1]; pH 7.4, oocytes
  effect of peptide alone on channel: had no effect on either channel
ASICα [1]; pH reduced while simultaneously removing FMRFamide, 80 sec pH 5 wash
  persistence of sustained current after removal of FMRFamide: the sustained current persisted throughout an 80 sec pH 5 wash and beyond
ASICα [2]; pH 5
  dependence of sustained current on sequence of FMRFamide and acid addition: application of FMRFamide after the pH reduction failed to induce large sustained current
ASICα [2]; pH 5, FMRFamide 50 or 100 μM
  effect on H+-gated ASICα whole-cell current: inactivation slowed and a sustained current was apparent
